Calls of active or inactive are those of the source. The rule behind the calls is not given here.
How the values were obtained:
[1] = system: Transient receptor potential cation channel subfamily A member 1 (Homo sapiens), O75762 [F944A]; assay: Antagonist activity at human TRPA1 Phe944Ala mutant expressed in HEK293 cells assessed as Ca2+ influx at 100 uM by fluorescence assay; type: cell-based
Summary of the method: (§1)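 hTRPA1 F909A or F944A mutant HEK293 stable clones, loaded with Fluo-4AM (2 µM, 45 min, room temperature). Compound pre-incubated 10 min before the standard agonist was added. FlexStation fluorescence (485/538 nm). ΔRFU normalized to the standard agonist response set at 100 %, after DMSO vehicle subtraction.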

By UniProt entry, the sequences of proteins in these tests, tags left out.
Transient receptor potential cation channel subfamily A member 1 (Homo sapiens), O75762, UniProt O75762, whole entry F944A: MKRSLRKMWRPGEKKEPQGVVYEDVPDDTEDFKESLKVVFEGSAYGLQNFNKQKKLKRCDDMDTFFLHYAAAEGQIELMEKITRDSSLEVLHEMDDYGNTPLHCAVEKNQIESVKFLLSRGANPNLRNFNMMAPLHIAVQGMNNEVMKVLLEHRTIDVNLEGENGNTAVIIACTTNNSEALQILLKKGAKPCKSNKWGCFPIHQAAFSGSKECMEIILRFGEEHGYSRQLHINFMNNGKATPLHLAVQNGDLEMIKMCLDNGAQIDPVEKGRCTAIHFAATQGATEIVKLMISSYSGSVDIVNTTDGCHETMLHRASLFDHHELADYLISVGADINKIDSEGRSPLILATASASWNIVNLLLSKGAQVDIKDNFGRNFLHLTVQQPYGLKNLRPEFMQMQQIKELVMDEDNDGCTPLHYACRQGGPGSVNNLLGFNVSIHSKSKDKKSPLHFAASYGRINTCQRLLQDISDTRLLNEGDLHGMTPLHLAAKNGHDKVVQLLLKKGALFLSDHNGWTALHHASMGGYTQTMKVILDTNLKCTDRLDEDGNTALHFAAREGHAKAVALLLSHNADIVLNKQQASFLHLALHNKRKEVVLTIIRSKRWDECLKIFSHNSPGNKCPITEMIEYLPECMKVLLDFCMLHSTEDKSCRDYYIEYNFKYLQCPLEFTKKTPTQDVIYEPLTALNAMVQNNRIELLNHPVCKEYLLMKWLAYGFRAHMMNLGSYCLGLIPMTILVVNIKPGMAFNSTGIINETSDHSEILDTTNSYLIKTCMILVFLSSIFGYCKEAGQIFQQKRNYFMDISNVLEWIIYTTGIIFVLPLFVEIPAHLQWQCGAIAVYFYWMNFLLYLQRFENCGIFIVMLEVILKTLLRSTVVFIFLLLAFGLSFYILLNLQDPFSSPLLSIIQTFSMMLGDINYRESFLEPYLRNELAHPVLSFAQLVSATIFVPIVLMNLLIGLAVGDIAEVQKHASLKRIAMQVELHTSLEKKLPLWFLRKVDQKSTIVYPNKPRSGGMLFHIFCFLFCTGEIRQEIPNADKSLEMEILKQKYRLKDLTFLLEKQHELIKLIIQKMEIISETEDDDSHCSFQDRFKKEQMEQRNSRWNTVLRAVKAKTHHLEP
Transient receptor potential cation channel subfamily A member 1 (Homo sapiens), O75762, UniProt O75762, whole entry F909A: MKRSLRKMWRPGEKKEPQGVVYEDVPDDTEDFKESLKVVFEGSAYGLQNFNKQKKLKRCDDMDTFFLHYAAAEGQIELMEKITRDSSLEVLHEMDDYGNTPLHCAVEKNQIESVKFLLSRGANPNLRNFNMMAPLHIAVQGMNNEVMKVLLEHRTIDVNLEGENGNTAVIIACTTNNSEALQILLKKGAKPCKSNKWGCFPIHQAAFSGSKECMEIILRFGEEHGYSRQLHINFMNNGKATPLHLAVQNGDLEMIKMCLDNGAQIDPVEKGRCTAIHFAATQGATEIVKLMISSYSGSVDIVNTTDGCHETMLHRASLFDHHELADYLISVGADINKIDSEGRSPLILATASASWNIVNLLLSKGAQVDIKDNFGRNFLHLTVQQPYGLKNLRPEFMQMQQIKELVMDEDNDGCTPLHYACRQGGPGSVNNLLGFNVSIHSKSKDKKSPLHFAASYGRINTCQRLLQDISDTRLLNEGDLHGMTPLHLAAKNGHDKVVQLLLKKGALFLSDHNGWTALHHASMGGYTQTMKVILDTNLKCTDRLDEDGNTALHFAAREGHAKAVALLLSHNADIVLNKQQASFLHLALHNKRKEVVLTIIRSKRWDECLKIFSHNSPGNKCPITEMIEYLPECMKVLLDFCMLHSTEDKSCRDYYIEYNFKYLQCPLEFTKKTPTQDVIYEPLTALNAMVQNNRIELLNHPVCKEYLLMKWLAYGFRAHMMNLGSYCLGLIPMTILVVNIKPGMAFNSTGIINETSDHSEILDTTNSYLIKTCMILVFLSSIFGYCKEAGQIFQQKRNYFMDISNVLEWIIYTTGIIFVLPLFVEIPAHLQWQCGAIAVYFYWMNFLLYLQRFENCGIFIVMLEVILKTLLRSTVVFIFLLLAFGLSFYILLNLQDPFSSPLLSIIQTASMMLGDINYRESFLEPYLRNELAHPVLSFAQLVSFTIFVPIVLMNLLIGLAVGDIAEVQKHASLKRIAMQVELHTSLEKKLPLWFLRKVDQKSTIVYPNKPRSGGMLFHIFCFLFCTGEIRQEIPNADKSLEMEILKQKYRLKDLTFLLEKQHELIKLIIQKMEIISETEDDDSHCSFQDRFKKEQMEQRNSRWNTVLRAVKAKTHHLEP

[2] = system: Transient receptor potential cation channel subfamily A member 1 (Homo sapiens), O75762 [F909A]; assay: Antagonist activity at human TRPA1 Phe909Ala mutant expressed in HEK293 cells assessed as Ca2+ influx at 100 uM by fluorescence assay; type: cell-based; summary of the method: as §1

CC(=C\c1ccc(Cl)cc1)/C(C)=N/O [AP18 5]
Activity [1]: inactive
Activity [2]: inactive

From ChEMBL document CHEMBL4346663, “N-Cinnamoylanthranilates as human TRPA1 modulators: Structure-activity relationships and channel binding sites” (Eur J Med Chem, 2019)
